AlphaSeq binding of Ab-95 light chain variants to a spike HR2 peptide

All variants were tested on one target, the spike HR2 peptide PDVDLGDISGINAS (SARS-CoV-2).

Each scFv is VH, the linker GGGGSGGGGSGGGGS, VL, as in the parent Ab-95, and differs from it in the CDRs of the light chain only.
VH: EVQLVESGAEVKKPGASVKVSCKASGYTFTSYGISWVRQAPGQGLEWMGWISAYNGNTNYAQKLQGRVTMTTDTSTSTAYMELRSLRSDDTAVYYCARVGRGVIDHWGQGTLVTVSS
VL: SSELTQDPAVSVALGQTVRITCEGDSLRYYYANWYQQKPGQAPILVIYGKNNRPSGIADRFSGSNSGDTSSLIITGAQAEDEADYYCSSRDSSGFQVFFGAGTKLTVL

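The library (AAYL52) carries one to three amino acid substitutions per variant, with no insertions or deletions. Affinity was read by AlphaSeq, a pooled yeast mating assay with surface-displayed partners. Mating (16 h, 30 °C) was followed by selection of diploids and sequencing of their barcodes. The ratio of observed to expected reads was calibrated, replicate by replicate, on BCL2-family standards whose Kd was known from biolayer interferometry. There are three technical replicates.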

Each variant is given by its three light chain CDRs, as the data file delimits them; those of the parent are EGDSLRYYYAN, GKNNRPS, SSRDSSGFQVF. This list gathers variants with a substitution at P54 (VL, numbered from residue 1). Values are apparent Kd, the geometric mean of the replicates that gave a signal; lower means stronger binding. Where no diploid with the target was found in any replicate, the entry reads "nd": below detection, most likely a poor binder, though not proof of it. Parent in this assay: reference entry 200 nM, copy in this library 180 nM.

CDR-L1	CDR-L2	CDR-L3	Kd	detected
EGDSLRYYVAN	GKNNRGW	SSRDSSGFQVF	3.2 µM	3 of 3
EGDWLRYHYAN	GKNNRLS	SSRDSSGFQVF	300 nM	3 of 3
EGDSLRYYYAN	GKNWRAS	SSRDSSGFQLF	13 µM	3 of 3
EGDSLRYYYAN	GKNNRIS	SSYDSSGRQVF	1.6 µM	2 of 3
EGDSNRYYCAN	GKNNRDS	SSRDSSGFQVF	7.8 µM	2 of 3
EWDSLRYYYAN	GKNNRQS	SSRDSSYFQVF	120 µM	2 of 3
EGDVLRYYYAN	GKNNRWS	SSRDSSGFQQF	69 µM	3 of 3
EIDSLMYYYAN	GKNNRDS	SSRDSSGFQVF	nd	0 of 3
EGDSLRYYYAN	GKNNRKS	SSRFSFGFQVF	4.4 µM	3 of 3
EGDSLHYYYAN	GKNNRWS	SSQDSSGFQVF	nd	0 of 3
EGKSLRYYYAN	GKNNRMS	SSRDSSNFQVF	340 nM	3 of 3
EGDSLRYYYAN	GKNNRAY	HSRDSSGFQVF	nd	0 of 3
EGTSGRYYYAN	GKNNRES	SSRDSSGFQVF	59 µM	1 of 3
EGDSLRYYYAN	GHNNRYS	SSRDISGFQVF	3.1 µM	2 of 3
FGDSLRYEYAN	GKNNRMS	SSRDSSGFQVF	19 nM	3 of 3
EGDSLRYYYAN	GKNNRNS	SSRDSSGFPLF	510 nM	3 of 3
GGDSLRYYYAN	GKNNRSS	SSRDSSGFQVF	120 nM	3 of 3
EGDSLRYYYAN	GKNNRAS	SSFYSSGFQVF	nd	0 of 3
EGDSLRYYYAN	WKRNRGS	SSRDSSGFQVF	9.1 µM	2 of 3
EGDSLRYYYAN	GKNNRLS	PSRDSFGFQVF	460 nM	3 of 3
EGDFLRYYYAN	GKNNRVS	SSRDSSGFQFF	nd	0 of 3
EGDSLRYYYAG	GKNNRYS	SSRDSSGSQVF	17 µM	1 of 3
EGDSLRYYYAN	GKNNRGS	STRDSSGFQTF	18 µM	1 of 3
EGDSLRYYYAN	GKNNRSS	SPRDSSKFQVF	1.5 µM	3 of 3
EGDSLRYYYAN	GKNNRCS	SSRDESGFQVF	34 nM	3 of 3
EGDSLRYYYAN	GKNNRQS	SSRDHSGTQVF	320 nM	3 of 3
EGDSLRYYYAN	GKTNRFS	KSRDSSGFQVF	nd	0 of 3
EGDSLRYYYAN	WKNQRQS	SSRDSSGFQVF	nd	0 of 3
EGDSLRYYYAN	GKNNRLS	SSRDSSGAGVF	1.4 µM	2 of 3
EGDSVRYYYAN	GKNNRSG	SSRDSSGFQVF	4.1 µM	3 of 3
EGKSLRYYYAN	GKNNRQS	SSRDSAGFQVF	880 nM	3 of 3
EGDSHRYYYAN	GKNNRGS	SSRDSSGFQVF	50 µM	1 of 3
EGDSLRYYYAN	GKNNRIS	SSRTSSFFQVF	25 µM	2 of 3
EGDQLRYYYAN	GKNNRTS	SSRVSSGFQVF	15 µM	2 of 3
EGDSLRYYYAN	GKNNRES	SSRDFSGFQVF	1.5 µM	3 of 3
EGDSLLYVYAN	GKNNRRS	SSRDSSGFQVF	1.3 µM	2 of 3
EGDSFRYYYAN	GKNNRRS	SSRDSSPFQVF	8.2 µM	2 of 3
EGDSLIYYYAN	GTNNRKS	SSRDSSGFQVF	nd	0 of 3
EGDSLRYYYAN	GINNGSS	SSRDSSGFQVF	13 µM	1 of 3
EGDSLKYYYAN	GKNNRGS	SSRDSSGFQRF	560 nM	1 of 3
EGDELDYYYAN	GKNNRMS	SSRDSSGFQVF	400 nM	3 of 3
EFDSLRYYYAN	GKNNRVD	SSRDSSGFQVF	380 nM	3 of 3
EGDSLRYYVAN	GKNNRKS	SSRDSSGFQVF	14 µM	1 of 3
EGDSLRYYYAN	GKNNRKS	SSRDSTGFQVF	1.8 µM	3 of 3
EGDSLRWDYAN	GKNNRTS	SSRDSSGFQVF	1.1 µM	3 of 3
EGDSGRYYYAN	GKNSRWS	SSRDSSGFQVF	13 µM	2 of 3

Top 6 of the variants detected in all replicates, tightest first:

| CDR-L1 | CDR-L2 | CDR-L3 | Kd | detected |
|---|---|---|---|---|
| FGDSLRYEYAN | GKNNRMS | SSRDSSGFQVF | 19 nM | 3 of 3 |
| EGDSLRYYYAN | GKNNRCS | SSRDESGFQVF | 34 nM | 3 of 3 |
| GGDSLRYYYAN | GKNNRSS | SSRDSSGFQVF | 120 nM | 3 of 3 |
| EGDWLRYHYAN | GKNNRLS | SSRDSSGFQVF | 300 nM | 3 of 3 |
| EGDSLRYYYAN | GKNNRQS | SSRDHSGTQVF | 320 nM | 3 of 3 |
| EGKSLRYYYAN | GKNNRMS | SSRDSSNFQVF | 340 nM | 3 of 3 |

Three control strains display no target. For library AAYL52, 28% of the pairings with them gave a signal, with a median of 8.2 µM and one signal in twenty below 800 nM, so weak values seen in few replicates may be background.

Source: Engelhart et al. 2022 (doi:10.1038/s41597-022-01779-4), MIT Lincoln Laboratory and A-Alpha Bio; data file from the FLAb repository.